Data as given in paper PMC11554605, “Pharmacological differences between human and mouse P2X4 receptor explored using old and new tools” (Purinergic Signalling, 2024).

Tests used:
Assay type in all cases: cell-based
human P2X4 [1] = target: T1, human P2X4 (Homo sapiens, UniProt Q99571); experiment: Intracellular Ca2+ assay (Fura-2, FlexStation 3), agonist responses in 1321N1 cells stably expressing human P2X4; conditions: 1321N1 cells expressing human P2X4; peak Ca2+ response
T1 construct: expressed in transfected cells
T1 sequence (Q99571 1-388): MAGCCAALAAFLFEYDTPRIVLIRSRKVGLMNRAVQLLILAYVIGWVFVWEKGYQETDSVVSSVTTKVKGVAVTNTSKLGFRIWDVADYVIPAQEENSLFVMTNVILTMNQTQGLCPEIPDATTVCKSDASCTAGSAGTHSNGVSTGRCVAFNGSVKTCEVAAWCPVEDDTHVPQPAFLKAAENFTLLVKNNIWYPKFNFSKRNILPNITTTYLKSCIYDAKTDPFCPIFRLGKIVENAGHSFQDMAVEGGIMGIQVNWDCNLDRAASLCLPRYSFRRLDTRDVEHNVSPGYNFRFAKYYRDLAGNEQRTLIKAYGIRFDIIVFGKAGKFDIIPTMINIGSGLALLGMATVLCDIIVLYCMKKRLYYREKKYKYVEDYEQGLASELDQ

mouse P2X4 [2] = target: T2, mouse P2X4 (Mus musculus, UniProt Q9JJX6); experiment: Intracellular Ca2+ assay (Fura-2, FlexStation 3), agonist responses in 1321N1 cells stably expressing mouse P2X4; conditions: 1321N1 cells expressing mouse P2X4; peak Ca2+ response
T2 construct: expressed in transfected cells
T2 sequence (Q9JJX6 1-388): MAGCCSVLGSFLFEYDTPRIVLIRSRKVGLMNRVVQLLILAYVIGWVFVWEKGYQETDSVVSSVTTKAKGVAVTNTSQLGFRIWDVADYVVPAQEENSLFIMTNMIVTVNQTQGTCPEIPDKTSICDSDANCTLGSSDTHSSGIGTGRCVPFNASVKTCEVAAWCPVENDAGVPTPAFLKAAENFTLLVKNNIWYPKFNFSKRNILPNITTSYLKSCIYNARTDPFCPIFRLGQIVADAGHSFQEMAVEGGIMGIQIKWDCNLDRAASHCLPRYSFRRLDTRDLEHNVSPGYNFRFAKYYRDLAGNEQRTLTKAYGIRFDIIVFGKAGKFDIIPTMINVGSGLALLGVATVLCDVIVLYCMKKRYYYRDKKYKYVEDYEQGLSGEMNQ

human P2X4 [3] = target: T1, human P2X4; experiment: Intracellular Ca2+ assay, antagonists against Ca2+ responses evoked by EC80 ATP (1.5 µM) in 1321N1 cells expressing human P2X4
mouse P2X4 [4] = target: T2, mouse P2X4; experiment: Intracellular Ca2+ assay, antagonists against Ca2+ responses evoked by EC80 ATP (1.5 µM) in 1321N1 cells expressing mouse P2X4

Nc1ccn([C@@H]2O[C@H](COP(=O)(O)OP(=O)(O)OP(=O)(O)O)[C@@H](O)[C@H]2O)c(=O)n1 [CTP, Cytidine 5′-triphosphate]
EC50 (human P2X4 [1]): 20 ± 4 µM | EC50 (mouse P2X4 [2]): 10 ± 1 µM

Cc1nc(/N=N/c2ccc(S(=O)(=O)O)cc2S(=O)(=O)O)c(COP(=O)(O)O)c(C=O)c1O [PPADS, Pyridoxalphosphate-6-azophenyl-2′,4′-disulfonic acid]
IC50 (human P2X4 [3]; read-out: IC50 Human): 34 ± 16 µM | IC50 (mouse P2X4 [4]): 42 ± 14 µM

Cc1ccc(S(=O)(=O)N2c3ccccc3Oc3ccccc32)cc1 [PSB-12062, N-(p-methylphenylsulfonyl)phenoxazine]
IC50 (human P2X4 [3]; read-out: IC50 Human): 0.248 ± 0.041 µM

Nc1ncnc2c1ncn2[C@@H]1O[C@H](COP(=O)(O)OP(=O)(O)OP(=O)(O)O)[C@H]2OC3(O[C@H]21)C([N+](=O)[O-])=CC(=[N+]([O-])[O-])C=C3[N+](=O)[O-] (stereo partly drawn) [TNP-ATP, 2′,3′-O-(2,4,6-Trinitrophenyl)-ATP]
IC50 (human P2X4 [3]): 17 ± 5 µM

Where two headings read alike, the source gives them in different places.
